Data reported in PubChem BioAssay (Tox21).
Only a part is listed here, and it is no random draw. Records with an inconclusive call do not appear. A structure can be active in one record and inactive in another. Calls of active or inactive are those of the source. Unless noted, calls follow the shape of the full dose curve.

By UniProt entry, the sequences of proteins in these tests, tags left out.
UniProt P30968, whole entry: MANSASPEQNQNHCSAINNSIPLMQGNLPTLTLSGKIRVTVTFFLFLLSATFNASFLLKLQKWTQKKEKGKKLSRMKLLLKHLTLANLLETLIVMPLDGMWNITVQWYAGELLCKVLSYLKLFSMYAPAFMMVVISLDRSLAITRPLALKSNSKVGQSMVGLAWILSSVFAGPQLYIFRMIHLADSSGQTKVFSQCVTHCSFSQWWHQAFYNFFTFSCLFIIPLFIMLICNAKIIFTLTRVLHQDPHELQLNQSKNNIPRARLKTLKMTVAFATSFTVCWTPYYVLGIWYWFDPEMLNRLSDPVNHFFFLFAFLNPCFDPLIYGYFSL
UniProt Q969F8, whole entry: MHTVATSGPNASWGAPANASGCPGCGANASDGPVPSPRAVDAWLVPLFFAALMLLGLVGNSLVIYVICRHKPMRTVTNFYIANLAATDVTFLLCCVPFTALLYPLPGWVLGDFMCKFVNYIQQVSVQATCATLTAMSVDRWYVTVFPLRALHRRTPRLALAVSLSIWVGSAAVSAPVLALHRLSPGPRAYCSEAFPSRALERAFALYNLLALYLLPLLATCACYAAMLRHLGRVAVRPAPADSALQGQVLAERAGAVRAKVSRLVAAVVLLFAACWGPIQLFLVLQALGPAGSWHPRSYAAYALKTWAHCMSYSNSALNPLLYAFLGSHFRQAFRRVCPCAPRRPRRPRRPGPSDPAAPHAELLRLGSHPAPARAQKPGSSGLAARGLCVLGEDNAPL
UniProt P28223, whole entry: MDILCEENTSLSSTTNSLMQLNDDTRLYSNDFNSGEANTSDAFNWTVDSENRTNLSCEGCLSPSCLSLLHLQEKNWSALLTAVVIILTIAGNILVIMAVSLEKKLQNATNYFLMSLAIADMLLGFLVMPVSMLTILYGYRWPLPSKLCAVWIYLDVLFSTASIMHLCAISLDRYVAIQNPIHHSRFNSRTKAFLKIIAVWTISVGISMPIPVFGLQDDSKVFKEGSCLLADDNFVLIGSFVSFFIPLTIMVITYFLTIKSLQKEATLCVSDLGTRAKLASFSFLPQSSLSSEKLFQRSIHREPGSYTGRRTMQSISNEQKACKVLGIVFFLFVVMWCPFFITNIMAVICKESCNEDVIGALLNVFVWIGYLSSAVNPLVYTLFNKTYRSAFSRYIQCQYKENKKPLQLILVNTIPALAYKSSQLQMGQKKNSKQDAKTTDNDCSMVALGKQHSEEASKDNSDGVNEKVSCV
UniProt P07550, whole entry: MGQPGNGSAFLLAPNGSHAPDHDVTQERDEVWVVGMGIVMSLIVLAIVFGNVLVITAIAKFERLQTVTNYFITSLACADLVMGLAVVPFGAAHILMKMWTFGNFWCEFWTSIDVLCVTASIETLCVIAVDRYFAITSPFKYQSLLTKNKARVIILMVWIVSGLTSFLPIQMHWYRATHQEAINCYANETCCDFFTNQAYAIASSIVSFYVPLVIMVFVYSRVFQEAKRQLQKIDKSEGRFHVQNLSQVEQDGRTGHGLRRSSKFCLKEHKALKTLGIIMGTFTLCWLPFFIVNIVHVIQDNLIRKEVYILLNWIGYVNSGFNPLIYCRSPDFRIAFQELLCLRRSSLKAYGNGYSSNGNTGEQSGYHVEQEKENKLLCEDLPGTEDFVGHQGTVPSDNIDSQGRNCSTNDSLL
UniProt P14416, whole entry: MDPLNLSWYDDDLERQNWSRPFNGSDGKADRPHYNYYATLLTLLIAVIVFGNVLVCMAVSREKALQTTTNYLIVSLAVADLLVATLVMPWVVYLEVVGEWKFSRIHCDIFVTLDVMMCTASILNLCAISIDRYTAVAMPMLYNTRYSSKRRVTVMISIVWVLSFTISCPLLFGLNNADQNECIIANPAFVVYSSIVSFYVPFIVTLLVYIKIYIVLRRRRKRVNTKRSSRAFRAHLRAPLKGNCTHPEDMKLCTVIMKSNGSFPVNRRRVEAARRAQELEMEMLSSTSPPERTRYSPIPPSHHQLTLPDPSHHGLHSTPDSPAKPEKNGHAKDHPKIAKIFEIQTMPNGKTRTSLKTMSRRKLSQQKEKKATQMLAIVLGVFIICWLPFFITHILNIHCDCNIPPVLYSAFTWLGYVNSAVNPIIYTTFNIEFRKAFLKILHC

Key:
[1] = target: Gonadotropin-releasing hormone receptor (Homo sapiens) (UniProt P30968); test: Human gonadotropin-releasing hormone receptor (GnRHR) small molecule agonists, calcium flux assay in GnRHR-HEK293 cells (AID 1920063); conditions: calcium flux fluorescence, agonist mode, stronger effect = higher value; also: nearly all actives have a fitted effect of over 35% in size
In short: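 Intracellular calcium rise is the read-out: engineered human GnRHR HEK293 cells, dye-loaded, are exposed to DMSO-dissolved compounds and fluorescence at Ex/Em 480/540 is tracked for 3 min.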

[2] = target: KiSS-1 receptor (Homo sapiens) (UniProt Q969F8); test: Human kisspeptin (KISS1R) small molecule agonists, calcium flux assay in KISS1R-HEK293 cells (AID 1920064; active = well fitted curve in the direction sought with a large enough effect in the repeat runs; an effect the other way counts as inactive or inconclusive); conditions: KISS1R-HEK293, calcium flux fluorescence, agonist
In short: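 Concentration-response testing used 15 concentrations in triplicate on human KISS1R-expressing HEK293 cells. Calcium-dependent fluorescence (Ex/Em 480/540) was followed kinetically for 3 min after compound transfer.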

[3] = G protein-coupled receptor (GPCR) small molecule agonists, calcium flux assay: HEK293 wild type cell line counter screen (AID 1920065); conditions: HEK293 WT calcium flux, fluorescence, agonist mode
In short: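 Fluorescence intensity signals activation. After overnight (18 h) culture and a 1 h calcium dye load at 37 C, compounds are added by pin tool and the plate read at 480/540 nm for 3 min in 1 s steps.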

[4] = p53 small molecule agonists, cell-based qHTS assay with human liver microsomes (AID 1963577); conditions: HCT-116 p53RE-bla with human liver microsomes, ratio, 16 h;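 also: p53 response element beta-lactamase reporter cells with liver microsomes plus NADPH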
In short: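 Metabolically competent format: test substances, human liver microsomes and NADPH (both 0.5 mg/mL final) incubated with p53RE-bla cells 16 h at 37 C. Beta-lactamase reporter signal then quantified by fluorescence.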

[5] = p53 small molecule agonists, cell-based qHTS assay with rat liver microsomes (AID 1963578); conditions: HCT-116 p53RE-bla, beta-lactamase ratio, 16 h
In short: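 Each plate received p53RE-bla cells, then compound, then rat liver microsomes and NADPH (both 0.5 mg/mL final). Plates were held 16 h at 37 C, and beta-lactamase activity was detected with LiveBLAzer over 2 h.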

[6] = p53 small molecule agonists, cell-based qHTS assay with human liver microsomes: qHTS cell viability counter screen (AID 1963579); conditions: p53RE-bla HCT-116 viability, ATP luminescence, 16 h, HLM; also: nearly all actives have a fitted effect of over 45% in size
In short: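 Tox21 library compounds, delivered from DMSO stocks, were tested on p53RE-bla cells together with 0.5 mg/mL human liver microsomes and 0.5 mg/mL NADPH (final) over 16 h at 37 C; CellTiter-Glo luminescence served as the cytotoxicity measure.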

[7] = p53 small molecule agonists, cell-based qHTS assay with rat liver microsomes: qHTS cell viability counter screen (AID 1963580); conditions: p53RE-bla HCT-116 + rat microsomes, ATP viability, 16 h; at 66 µM (top of the series) unless noted; also: nearly all actives have a fitted effect of over 45% in size
In short: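 Cytotoxicity counter screen: intracellular ATP measured by CellTiter-Glo luminescence in the same wells as the beta-lactamase reporter read, on HCT-116 p53RE-bla cells exposed 16 h at 37 C to compounds with rat liver microsomes and NADPH, each 0.5 mg/mL final.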

[8] = p53 small molecule agonists, cell-based qHTS assay: qHTS cell viability counter screen (AID 1963581); conditions: p53RE-bla HCT-116 viability, ATP luminescence, 16 h; also: nearly all actives have a fitted effect of over 45% in size
In short: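 Luminescence from CellTiter-Glo, reflecting ATP content, serves as the cytotoxicity measure; it is taken after the 2 h reporter substrate step in HCT-116 p53RE-bla cells dosed for 16 h at 37 C.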

[9] = p53 small molecule agonists, cell-based qHTS assay (AID 1963582; active = well fitted activation curve with a large enough effect in the signal ratio in the repeat runs, not every such curve was filed as active; the % refers to the signal ratio; also: potency is read from the fitted curve at half-maximal effect); conditions: HCT-116 p53RE-bla reporter, beta-lactamase FRET ratio, 16 h; series mostly up to 66 µM
In short: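 After plating, p53RE-bla cells sat 5 h in the incubator; compounds or DMSO vehicle were pinned in; a 16 h incubation at 37 C followed; FRET substrate was added and, 2 h later at RT, fluorescence was measured.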

[10] = target: 5-hydroxytryptamine receptor 2A (Homo sapiens) (UniProt P28223); test: 5-hydroxytryptamine receptor 2A (HTR2A) small molecule antagonists, cell-based qHTS assay (AID 1963586); conditions: HTR2A-CHO cells, DOI-induced calcium flux, fluorescence; also: nearly all actives have a fitted effect of over 45% in size
In short: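 CHO cells stably expressing human HTR2A were plated for 18 h at 37 C, then loaded with calcium dye for 1 h. Compounds were preincubated 5 min at room temperature before DOI (4 nM solution) was added. Kinetic fluorescence was read for 3 min.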

[11] = target: 5-hydroxytryptamine receptor 2A (Homo sapiens) (UniProt P28223); test: 5-hydroxytryptamine receptor 2A (HTR2A) small molecule agonists, cell-based qHTS assay (AID 1963587); conditions: HTR2A-CHO cells, calcium flux fluorescence, agonist mode; also: nearly all actives have a fitted effect of over 30% in size
In short: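 CHO cells stably expressing human HTR2A, plated 18 h, loaded with calcium dye 1 h at 37 C. Agonist mode: compounds added and intracellular calcium fluorescence recorded kinetically for 2 min at 1 sec intervals.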

[12] = cAMP Responsive Elements (CRE) small molecule agonists, cell-based qHTS assay (AID 1963590); conditions: CRE-bla HEK293T, beta-lactamase FRET ratio, 3 h
In short: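 Compound exposure lasted 3 h at 37 C/5% CO2 in CRE-bla HEK 293T cells grown in assay medium with 10% dialyzed FBS and 25 mM HEPES. Reporter signal came from LiveBLAzer B/G FRET substrate, 2 h, room temperature.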

[13] = target: Beta-2 adrenergic receptor (Homo sapiens) (UniProt P07550); test: Adrenergic beta2 receptor (ADRB2) small molecule antagonists, cell-based qHTS assay (AID 1963592); conditions: CHO-ADRB2 cells, isoproterenol-stimulated cAMP HTRF ratio, 0.5 h; also: nearly all actives have a fitted effect of over 50% in size
In short: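 Assay format: CHO-ADRB2 cells, 18-20hr seeding at 37C/5% CO2, then compound plus 1nM isoproterenol agonist mix for 0.5hr RT. Homogeneous time-resolved fluorescence cAMP detection after 1hr, expressed as 665/615 nm ratio.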

[14] = target: Beta-2 adrenergic receptor (Homo sapiens) (UniProt P07550); test: Adrenergic beta2 receptor (ADRB2) small molecule agonists, cell-based qHTS assay (AID 1963593); conditions: CHO-ADRB2 cells, cAMP HTRF, 30 min; at 92.4 µM (top of the series);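 also: CHO cells stably overexpressing human ADRB2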
In short: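 CHO cells stably over-expressing ADRB2 were plated overnight at 37C, then dosed with compounds plus a stimulation mix containing 100uM IBMX and 25uM Ro-20-1724 for 0.5hr at room temperature. cAMP was measured by HTRF competition, 1hr.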

[15] = target: D(2) dopamine receptor (Homo sapiens) (UniProt P14416); test: Dopamine D2 receptor (DRD2) small molecule agonists, cell-based qHTS assay (AID 1963594); conditions: HEK293-DRD2 cAMP HTRF, agonist mode, 30 min; also: nearly all actives have a fitted effect of over 35% in size
In short: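 HEK293 cells stably expressing human DRD2, pre-treated with PDE inhibitor Ro20-1724 (0.1 mM final) and compound 10 min at room temperature, then stimulated with NKH477 (200nM […]) for 30 min. cAMP read by HTRF (665/620 nm).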

[16] = target: D(2) dopamine receptor (Homo sapiens) (UniProt P14416); test: Dopamine D2 receptor (DRD2) small molecule antagonists, cell-based qHTS assay (AID 1963595; active = well fitted inhibition curve with a large enough effect in the signal ratio in the repeat runs, with a control signal flat; the % refers to the signal ratio); conditions: HEK293-DRD2 cAMP HTRF antagonist mode
In short: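 HEK293 cells stably expressing DRD2 were preincubated with 0.1 mM Ro20-1724, then with compound for 10 min at room temperature. Cells were stimulated with 200 nM NKH477 plus 12 nM quinpirole for 30 min, and cAMP was read by HTRF.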

[17] = Nuclear factor erythroid 2-related factor 2/antioxidant responsive element (Nrf2/ARE) small molecule agonists: qHTS cell viability counter screen in human keratinocytes (AID 1919968; active = well fitted curve in the direction sought with a large enough effect in the repeat runs; an effect the other way counts as inactive or inconclusive; also: nearly all actives have a fitted effect of over 55% in size); conditions: KeratinoSens HaCaT ARE cells viability, CellTiter-Fluor, 24 h; at 92.4 µM (top of the series)
In short: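 In human HaCaT keratinocytes stably expressing an ARE-driven luciferase, compound exposure lasted 23 h at 37 C under 5% CO2. Viable cells are quantified with a protease-based fluorogenic reagent (CellTiter-Fluor) read 1 h after addition.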

[18] = Nuclear factor erythroid 2-related factor 2/antioxidant responsive element (Nrf2/ARE) small molecule agonists: luciferase reporter gene qHTS assay in human keratinocytes (AID 1919969); conditions: KeratinoSens HaCaT ARE-luciferase, luminescence, 24 h; at 92.4 µM (top of the series); also: nearly all actives have a fitted effect of over 35% in size
[19] = cAMP Responsive Elements (CRE) small molecule antagonists, cell-based qHTS assay (AID 1963591; active = well fitted inhibition curve with a large enough effect in the signal ratio in the repeat runs, not every such curve was filed as active; the % refers to the signal ratio); conditions: CRE-bla HEK293T, beta-lactamase FRET ratio; at 92.4 µM (top of the series)
In short: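 Stimulation used NKH477 at a final 0.25 uM for 3 h in compound-treated CRE-bla HEK293T cells, seeded 18 h beforehand. Reporter activity was measured with LiveBLAzer B/G FRET substrate after 2 h at room temperature.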
% is scaled to controls: 0 for no effect and ±100 for the full control effect.

CN(CCCl)CCCl
40.7 µM (active) and inactive: Potency [9]
inactive: activity change ([1]; at 26.4 µM (top of the series)) -0.654% | activity change ([1]; at 57.6 µM (top of the series)) -0.929% | activation ([2]; at 35.3 µM (top of the series)) -1.68% | activation ([2]; at 76.8 µM (top of the series)) -4.51% | activation ([3]; at 26.5 µM (top of the series)) -0.976% | activation ([3]; at 57.6 µM (top of the series)) -0.455% | activation ([4]; at 30.3 µM (top of the series)) 1.2% | activation ([4]; at 66 µM (top of the series)) 2.6% | activation ([5]; at 30.3 µM (top of the series)) 20.9% | activation ([5]; at 66 µM (top of the series)) 4.79% | activity change, negative = cytotoxicity ([6]; at 30.3 µM (top of the series)) 11.7% | activity change, negative = cytotoxicity ([6]; at 66 µM (top of the series)) -11.9% | activity change, negative = cytotoxicity [7] 15.4% [at 30.3 µM] | activity change, negative = cytotoxicity ([8]; at 30.3 µM (top of the series)) 4% | activity change, negative = cytotoxicity ([8]; at 66 µM (top of the series)) -7.56% | activity, negative = inhibition ([10]; at 28.5 µM (top of the series)) -14.5% | activity, negative = inhibition ([10]; at 61.5 µM (top of the series)) 56.3% | activation ([11]; at 35.6 µM (top of the series)) -0.479% | activation ([11]; at 76.8 µM (top of the series)) 13.6% | activation ([12]; at 42.5 µM (top of the series)) -0.412% | activation ([12]; at 92.4 µM (top of the series)) -1.33% | activity change, negative = inhibition ([13]; at 42.5 µM (top of the series)) -5.88% | activity change, negative = inhibition ([13]; at 92.4 µM (top of the series)) -7.51% | activation [14] 7.88% | activation ([15]; at 42.5 µM (top of the series)) 3.44% | activation ([15]; at 92.4 µM (top of the series)) -0.685% | activity change, negative = inhibition ([16]; at 42.5 µM (top of the series)) 8.82% | activity change, negative = inhibition ([16]; at 92.4 µM (top of the series)) 4.61%

O=[N+]([O-])C(Cl)(Cl)Cl
inactive: activity change, negative = cytotoxicity [17] -2.06% | activity, positive = activation [18] -5.75% | activity change ([1]; at 57.6 µM (top of the series)) 0.53% | activation ([2]; at 76.8 µM (top of the series)) 0.0628% | activation ([3]; at 57.6 µM (top of the series)) -0.433% | activation ([4]; at 66 µM (top of the series)) 1.82% | activation ([5]; at 66 µM (top of the series)) 10.7% | activity change, negative = cytotoxicity ([6]; at 66 µM (top of the series)) 5.46% | activity change, negative = cytotoxicity [7] 0.615% | activity change, negative = cytotoxicity ([8]; at 66 µM (top of the series)) -4.05% | Potency [9] | activity, negative = inhibition ([10]; at 61.5 µM (top of the series)) -16.6% | activation ([12]; at 92.4 µM (top of the series)) 0.288% | activity change, negative = inhibition [19] -0.303% | activity change, negative = inhibition ([13]; at 92.4 µM (top of the series)) 0.591% | activation [14] 26.2% | activation ([15]; at 92.4 µM (top of the series)) -2.89% | activity change, negative = inhibition ([16]; at 92.4 µM (top of the series)) -7.29%
